Structures are written as SMILES. The list shows a part of the results, in another mix than the full data. Inconclusive results are not listed. The source made the active and inactive calls. Calls come from the whole dose curve; as a rule, active = well fitted inhibition curve with a large enough effect; inconclusive = small, poorly fitted or top-dose-only effect; inactive = no such curve, though single readings can be large or run the other way.

This is an account of results in PubChem BioAssay AID651843 (National Center for Advancing Translational Sciences (NCATS), 2012).

This test can be described thus: qHTS Assay for Inhibitors of MBNL1-poly(CUG) RNA binding: Counterscreen HTRF assay. To be noted: His-Menin/biotin-MLL peptide TR-FRET counterscreen; at 19.2 µM (top of the series). The text has this:
NIH Chemical Genomics Center [NCGC] NIH Molecular Libraries Probe Production Centers Network [MLPCN] MLPCN Grant: R03 MH087421-01 Assay Submitter (PI): Charles Thornton NCGC Assay Overview: Expanded CTG repeats in the 3' untranslated region of the DM protein kinase (DMPK) gene causes type I myotonic dystrophy (DM1). DM1 is a multi-systemic disease with a prevalence of 1/7000. Clinical features include myotonia, progressive muscle weakness and wasting, cardiac arrhythmia, insulin resistance, hypersomnolence, cataracts, and other symptoms. The pathogenic effect of expanded CTG repeats stems from deleterious effects of the mutant transcript. CUGexp mRNA accumulates in nuclear foci and sequesters proteins of the muscleblind family, of which MBNL1 is the most common family member in skeletal muscles. […] This brings the terbium label within close proximity to XL665 to allow time-resolved fluorescence resonance energy transfer (TR-FRET). […]
This assay uses a ratiometric measurement of TR-FRET binding assay with His-Menin and Biotin-MLL peptide. […] (3) Add 1 ul of 0.22 ng/ul terbium labeled anti-His antibody (0.055 ng/ul final concentration) (4) Add 1 ul of 20 nM streptavidin-XL665 (5 nM final concentration) (5) Incubate 60 min at room temperature (6) Detect the assay plate in a EnVision plate reader (PerkinElmer) with Ex=340 nm, Em1=665 nm and Em2=545 nm.
(In general: In qHTS, concentration-response curves come from the screen itself.)

In the case of `C/C1=C2N=C(/C=C3N=C(/C(C)=C4\[N-][C@@](C)([C@@H]5N=C1[C@](C)(CCC(=O)NC[C@@H](C)OP(=O)([O-])O[C@H]1[C@@H](O)[C@@H](n6cnc7cc(C)c(C)cc76)O[C@@H]1CO)[C@H]5CC(N)=O)[C@@](C)(CC(N)=O)[C@@H]4CCC(N)=O)[C@@](C)(CC(N)=O)[C@@H]\3CCC(N)=O)C(C)(C)[C@@H]/2CCC(N)=O.[C-]#N.[Co+3]`, the activity, negative = inhibition is inactive: 28.3%.
